Read-outs that look alike come from different tables or passages of the source.

Amino acid sequences for entries named in this document (tags omitted). Residues count along the entry.
UniProt P03372, 307-554 limits assumed: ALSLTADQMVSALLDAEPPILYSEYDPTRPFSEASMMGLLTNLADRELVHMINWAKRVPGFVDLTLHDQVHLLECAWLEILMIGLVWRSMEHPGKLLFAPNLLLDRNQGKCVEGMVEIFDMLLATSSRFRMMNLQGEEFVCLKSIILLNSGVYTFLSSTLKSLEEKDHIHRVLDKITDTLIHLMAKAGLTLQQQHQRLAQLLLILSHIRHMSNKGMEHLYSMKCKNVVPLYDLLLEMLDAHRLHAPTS

IC50 data for seven molecules are collected here from patent US20220169643A1, “ESTROGEN RECEPTOR DEGRADING PROTACS” (AstraZeneca AB, priority 2019, published 2022).

This assay concerns the target Estrogen Receptor Alpha Ligand binding domain (ER alpha-LBD (GST)) (Homo sapiens, UniProt P03372). As to the kind of experiment: ERα Binding Assay (LanthaScreen TR-FRET competition). How it is done:
The ability of compounds to bind to isolated Estrogen Receptor Alpha Ligand binding domain (ER alpha-LBD (GST)) was assessed in competition assays using a LanthaScreen™ Time-Resolved Fluorescence Resonance Energy Transfer (TR-FRET) detection end-point. For the LanthaScreen TR-FRET endpoint, a suitable fluorophore (Fluormone ES2, ThermoFisher, Product code P2645) and recombinant human Estrogen Receptor alpha ligand binding domain, residues 307-554 (expressed and purified in-house) were used to measure compound binding. The assay principle is that ER alpha-LBD (GST) is added to a fluorescent ligand to form a receptor/fluorophore complex. A terbium-labelled anti-GST antibody (Product code PV3551) is used to indirectly label the receptor by binding to its GST tag, and competitive binding is detected by a test compound's ability to displace the fluorescent ligand, resulting in a loss of TR-FRET signal between the Th-anti-GST antibody and the tracer. The assay was performed as follows with all reagent additions carried out using the Beckman Coulter BioRAPTR FRD microfluidic workstation: • 1. Acoustic dispense 120 nL of the test compound into a black low volume 384 well assay plates. • 2. Prepare 1×ER alpha-LBD/Tb-anti-GST Ab in ES2 screening buffer and incubate for 15 minutes. • 3. Dispense 6 μL of the 1×[…]/Th-anti-GST Ab reagent into each well of the assay plate followed by 6 μL of Fluorophore reagent into each well of the assay plate • 4. Cover the assay plate to protect the reagents from light and evaporation, and incubate at room temperature for 4 hours. • 5. Excite at 337 nm and measure the fluorescent emission signal of each well at 490 nm and 520 nm using the BMG PheraSTAR.
Compounds were dosed directly from a compound source microplate containing serially diluted compound (4 wells containing 10 mM, […] and 10 nM final compound respectively) to an assay microplate using the Labcyte Echo 550. The Echo 550 is a liquid handler that uses acoustic technology to perform direct microplate-to-microplate transfers of DMSO compound solutions and the system can be programmed to transfer multiple small nL volumes of compound from the different source plate wells to give the desired serial dilution of compound in the assay which is then back-filled to normalise the DMSO concentration across the dilution range.
In total 120 nL of compound plus DMSO were added to each well and compounds were tested in a 12-point concentration response format over a final compound concentration range of 10, 2.917, 1.042, 0.2083, 0.1, 0.0292, 0.0104, 0.002083, 0.001, 0.0002917, 0.0001042, and 0.00001 μM respectively. TR-FRET dose response data obtained with each compound was exported into a suitable software package (such as Origin or Genedata) to perform curve fitting analysis. Competitive ER alpha binding was expressed as an IC50 value. This was determined by calculation of the concentration of compound that was required to give a 50% reduction in tracer compound binding to ER alpha-LBD.
(TR-FRET usually uses a lanthanide donor and a delayed reading to cut background.)

Where [1] appears, read: read-out: ER binding IC50, competitive displacement of Fluormone ES2 tracer from recombinant human ER alpha-LBD (residues 307-554), 4 hours at room temperature.

Turning to `C[C@@H]1Cc2c([nH]c3ccccc23)[C@@H](c2cnc(N3CCC(CCN(C)C4CN(c5ccc6c(c5)CN(C5CCC(=O)NC5=O)C6=O)C4)CC3)nc2)N1CC(C)(C)F` (stereo partly shown), the IC50 – broadly, the point on the concentration scale where inhibition reaches its midpoint – under setting [1] turned out to be 3.3 nM.
On to `C[C@@H]1Cc2c([nH]c3ccccc23)[C@@H](c2cnc(N3CCC4(CC3)CN(CC3CCN(c5ccc6c(c5)CN(C5CCC(=O)NC5=O)C6=O)CC3)C4)nc2)N1CC(C)(C)F` (stereo partly shown), for which, for the setting “read-out: ER binding IC50, competitive displacement of Fluormone ES2 tracer from recombinant human ER alpha-LBD (residues 307-554), 4 hours at room temperature, tested form: formate”, the concentration for half-maximal inhibition (IC50) is 12.3 nM.
Regarding `C[C@@H]1Cc2c([nH]c3ccccc23)[C@@H](c2cnc(N3CCC4(CC3)CC(CN3CCN(c5ccc6c(c5)CN(C5CCC(=O)NC5=O)C6=O)CC3)C4)nc2)N1CC(C)(C)F` (stereo partly shown), under setting [1], the half-maximal inhibitory concentration (IC50) came to 2.3 nM.
Still for that read-out and setting: the result for `C[C@@H]1Cc2c([nH]c3ccccc23)[C@@H](c2cnc(N3CCC4(CC3)CC4CN3CCN(c4ccc5c(c4)CN(C4CCC(=O)NC4=O)C5=O)CC3)nc2)N1CC(C)(C)F` (stereo partly shown) reads 5.1 nM; that for `C[C@@H]1Cc2c([nH]c3ccccc23)[C@@H](c2cnc(N3CCC(CCCN4C[C@H]5C[C@@H]4CN5c4ccc5c(c4)CN(C4CCC(=O)NC4=O)C5=O)CC3)nc2)N1CC(C)(C)F` (stereo partly shown), 3.9 nM; that for `CC(C1CCN(c2ncc([C@@H]3c4[nH]c5ccccc5c4C[C@@H](C)N3CC(C)(C)F)cn2)CC1)N1CCN(c2ccc3c(c2)CN(C2CCC(=O)NC2=O)C3=O)CC1` (stereo partly shown), 3.2 nM.
Same read-out and setting: the result for `C[C@@H]1Cc2c([nH]c3ccccc23)[C@@H](c2cnc(N3CCC(CN4CC5(C4)CN(c4ccc6c(c4)CN(C4CCC(=O)NC4=O)C6=O)C5)CC3)nc2)N1CC(C)(C)F` (stereo partly shown) reads 5.4 nM.
